Bioassay records deposited in PubChem by National Center for Advancing Translational Sciences (NCATS).
p53 reactivator: qHTS assay for re-activators of p53 using a Luc reporter; Potency, µM (top dose mostly 92.2 µM), for inactives: top-dose activity change, positive = activation, usual class: activators; H1299 p53-A138V BP100-luciferase reporter, luminescence, 24 h; AID 504706, 2011; 320,000 tested, 0.063% active; active = well fitted activation curve with a large enough effect; inconclusive = small, poorly fitted or top-dose-only effect; inactive = no such curve, though single readings can be large or run the other way; also: potency is read from the fitted curve at half-maximal effect; % of control where 0% means no effect; nearly all actives have a fitted effect of over 45% in size
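H1299 (p53-null), stable ts p53-A138V + BP100-Luc; 1000 cells/well, Opti-MEM/10% FBS; cpd 4 pt, 1:5; 24 h, 37 deg C, 5% CO2; detection reagent 10 min RT; luminescence.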
TSHR antag: Antagonists of the Thyroid Stimulating Hormone Receptor: HTS campaign; Thyrotropin receptor (Homo sapiens), P16473; TSHR-expressing cells, TSH-stimulated cAMP HTRF, 2 h; active compounds read low; activity change, negative = inhibition, % at 11.5 µM; 330,000 tested, 0.2% active; AID 504810, 2011;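 active = activity change below a set negative limit, meaning inhibition stronger than a set level, cut at about -70% in these data; inconclusive = activity change between two set negative limits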; also: % is scaled to controls: 0 for no effect and ±100 for the full control effect
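TSHR-expressing cells, 200/well, pre-treated with compound, then stimulated with EC80 TSH (4nM final) for 2 hours at 37 deg C. cAMP measured by competitive HTRF: anti-cAMP cryptate antibody in lysis buffer plus cAMP-d2, read after 30 minutes at room temperature.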
Rango dissoc inh: qHTS Assay for Inhibitors of RanGTP induced Rango (Ran-regulated importin-beta cargo) - Importin beta complex dissociation | Potency, µM (highest dose often 46.1 µM), without a hit: at the highest dose activity change, negative = inhibition | Snurportin-1 (Homo sapiens) + GTP-binding nuclear protein Ran (Homo sapiens) + Importin … | Biochemical FRET Rango-importin beta, RanGTP-induced dissociation | 340,000 tested, 0.071% active; also: potency is read from the fitted curve at half-maximal effect; % of control where 0% means no effect; nearly all actives have a fitted effect of over 45% in size
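Rango/importin beta premix (0.1/0.25 uM final), PBS + 1 mM DTT + 0.02% Tween-20 + 0.1% BSA; cpd 5 min RT; FRET pre-read; + RanGTP-RCC1 (0.6 uM Ran, 2 mM GTP, 0.2 uM RCC1); 45 min RT; FRET post-read, ex 430, em 486/530 nm.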
Rango complex inh: qHTS Assay for Inhibitors of Rango (Ran-regulated importin-beta cargo) - Importin beta complex formation; Importin subunit beta-1 (Homo sapiens), Q14974; Rango CFP/YFP FRET sensor + importin beta, 45 min; Potency, µM (series often up to 92.2 µM), without a hit: top-dose inhibition of complex formation; 340,000 tested, 0.031% active;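 also: potency is read from the fitted curve at half-maximal effect; 0% = DMSO wells and 100% = buffer wells lacking importin beta; nearly all actives have a fitted effect of over 15% in size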
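Inhibition scored from the CFP 486 nm/YFP 530 nm FRET ratio 45 min after adding 0.125 microM importin beta to 50 nM Rango biosensor preincubated 5 min with compound (room temperature, PBS with DTT, Tween-20, BSA). No-importin wells as positive control.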
pAkt inh: HTS Assay for Inhibitors of Akt Phophorylation: Primary Screen | Neuro2A IGF-stimulated pAkt S473 HTRF, 20 min; active compounds read low | activity change, % for hits at 50 µM | 360,000 tested, 0.32% active | AID 651550, 2012; in the data active = activity change below about -80%; inconclusive = mostly about -51% to -80%; also: % is scaled to controls: 0 for no effect and ±100 for the full control effect
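Neuro2A cells (4,500/well, DMEM with 0.5% FBS) were treated with compound at a single 50 µM final concentration, stimulated with 6 nM IGF for 20 min at 37 °C, and lysed. Phospho-Akt Ser473 was read by HTRF as 665/615 ratio ×10^4.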
Active calls of the source: *; i = inactive; u = inconclusive; x = no result given; ! = not active in a repeat; [ ] = remark or other dose. Rows were chosen to be rich in hits. Some 0.62% of all compounds tested hit in one or more screens of this group. Unless noted, calls follow the shape of the full dose curve.

Chains of the proteins cited; added tags and fusions are not shown.
Thyrotropin receptor (Homo sapiens), P16473, UniProt P16473, whole entry, looked up: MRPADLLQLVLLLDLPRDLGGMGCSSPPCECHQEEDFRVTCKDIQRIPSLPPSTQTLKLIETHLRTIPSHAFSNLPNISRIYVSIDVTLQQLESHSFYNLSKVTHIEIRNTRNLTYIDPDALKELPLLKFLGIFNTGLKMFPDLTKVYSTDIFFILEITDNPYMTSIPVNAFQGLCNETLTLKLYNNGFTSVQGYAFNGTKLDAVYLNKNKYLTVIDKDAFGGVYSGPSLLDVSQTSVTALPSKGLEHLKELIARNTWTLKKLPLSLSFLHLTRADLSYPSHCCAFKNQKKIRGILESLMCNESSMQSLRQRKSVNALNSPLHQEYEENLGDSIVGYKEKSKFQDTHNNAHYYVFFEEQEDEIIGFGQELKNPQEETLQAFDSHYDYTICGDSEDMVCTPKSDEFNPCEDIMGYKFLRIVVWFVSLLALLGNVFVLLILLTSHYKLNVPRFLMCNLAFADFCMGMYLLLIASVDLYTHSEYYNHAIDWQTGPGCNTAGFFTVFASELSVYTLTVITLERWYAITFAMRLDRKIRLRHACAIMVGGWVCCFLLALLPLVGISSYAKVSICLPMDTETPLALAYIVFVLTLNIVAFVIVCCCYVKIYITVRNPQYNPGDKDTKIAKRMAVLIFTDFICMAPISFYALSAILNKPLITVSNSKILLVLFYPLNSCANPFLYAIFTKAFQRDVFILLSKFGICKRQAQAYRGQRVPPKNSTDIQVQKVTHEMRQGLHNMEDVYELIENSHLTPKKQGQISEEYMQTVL
Importin subunit beta-1 (Homo sapiens), Q14974, UniProt Q14974, whole entry, looked up: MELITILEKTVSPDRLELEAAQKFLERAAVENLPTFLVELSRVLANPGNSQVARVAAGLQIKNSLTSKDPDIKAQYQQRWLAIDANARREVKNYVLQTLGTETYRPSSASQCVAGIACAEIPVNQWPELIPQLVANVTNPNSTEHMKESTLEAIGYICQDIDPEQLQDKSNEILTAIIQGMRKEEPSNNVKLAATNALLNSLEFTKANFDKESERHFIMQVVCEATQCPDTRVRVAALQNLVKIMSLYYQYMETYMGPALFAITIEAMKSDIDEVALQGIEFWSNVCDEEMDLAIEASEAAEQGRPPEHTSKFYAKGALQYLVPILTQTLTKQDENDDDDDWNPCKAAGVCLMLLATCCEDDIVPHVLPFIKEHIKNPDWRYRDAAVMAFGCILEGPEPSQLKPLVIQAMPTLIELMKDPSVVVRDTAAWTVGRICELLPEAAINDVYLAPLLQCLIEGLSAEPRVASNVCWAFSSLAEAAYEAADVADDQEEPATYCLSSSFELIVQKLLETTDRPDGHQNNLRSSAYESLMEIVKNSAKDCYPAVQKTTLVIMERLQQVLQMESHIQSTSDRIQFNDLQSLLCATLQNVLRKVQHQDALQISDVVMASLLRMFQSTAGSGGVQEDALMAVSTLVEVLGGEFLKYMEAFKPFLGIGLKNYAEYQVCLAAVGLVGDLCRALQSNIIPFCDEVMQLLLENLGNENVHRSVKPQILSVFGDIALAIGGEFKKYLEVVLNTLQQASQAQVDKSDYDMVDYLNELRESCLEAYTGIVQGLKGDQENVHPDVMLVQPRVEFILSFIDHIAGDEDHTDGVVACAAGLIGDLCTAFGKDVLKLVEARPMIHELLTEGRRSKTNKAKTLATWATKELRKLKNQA

TSHR antag	pAkt inh	Rango dissoc inh	Rango complex inh	p53 reactivator	structure
11.4	x	1.5%	-6.1%	9.9%	CCN1CCN(C2=C(NS(=O)(=O)c3ccc(NC(C)=O)cc3)C(=O)c3ccccc3C2=O)CC1
-79.4*	i	-25.1%	-2.2%	24.3%	CCN1CCN(C2=C(NS(=O)(=O)c3ccc(C)cc3)C(=O)c3ccccc3C2=O)CC1
31.1	i	-21.6%	4.6%	x	OCC[C@@H]1C[C@@H](O)[C@H](O)[C@@]2(Cc3ccccc3O2)O1
-6.3	-84.2%*	-2.2%	0.0%	2.1%	O=C(CSc1nc2ccccc2c(=O)[nH]1)N1CCN(S(=O)(=O)c2ccccc2)CC1
11.1	-110.2%*	4.6%	3.4%	-3.9%	CCOc1nc(C)ccc1-c1noc(C)n1
-17.6	-108.6%*	-3.8%	0.9%	u	COc1ccccc1-c1nc(-c2ccc(C)nc2OC)no1
-0.5	i	u	u	-18.9%	COc1ccc(OC)c2c1C(=O)c1ccccc1C2=O
-103.4*	i	-8.6%	2.6%	-16.9%	COc1ccc(OC)c2c1C(=O)C(Cl)=C(Cl)C2=O
-7.5	-118.7%*	1.3%	2.7%	u	COc1ccc(-c2nc3ccccc3c(=O)o2)cc1OC
-4.7	i	8.4%	-1.0%	x	COc1ccc(-c2nnc(-c3ccccc3)o2)cc1OC
-0.4	i	-12.4%	u	1.1%	CCCc1[nH]n(-c2ccc([N+](=O)[O-])cc2)c(=O)c1C=NCCc1ccc(OC)c(OC)c1
-8.8	i	-8.9%	3.1%	17.8µM*	Cc1ccc(C(=O)CC(Nc2ccc(F)cc2)c2ccccc2)cc1 (configuration not stated)
16.5	i	25.9%	2.6%	0.3%	Cc1ccnc(N2C(=O)CSC2c2ccc(Cl)cc2)c1 (configuration not stated)
8.5	i	0.6%	-0.9%	-8.0%	COc1ccc(OC)c(NC(=O)c2ccc(N3C(=O)C4CC=C(C)CC4C3=O)cc2)c1 (configuration not stated)
-81.9*	i	5.1%	-1.8%	0.1%	CC1=CCC2C(=O)N(c3ccc(C(=O)Nc4ccccc4Cl)cc3)C(=O)C2C1 (configuration not stated)
5.6	-82.0%*	-2.7%	-0.3%	17.7%	O=C(CCS(=O)(=O)c1ccc(Br)s1)NCc1cccs1
-3.4	-85.5%*	-11.0%	-0.6%	14.4%	CCOCC(=O)Nc1nnc(SCCOC)s1
4.2	i	-19.3%	-4.2%	29.0%	COc1cccc(NC(=O)NCc2ccccn2)c1
33.1	i	4.3%	-0.5%	22.4µM*	S=C(Nc1ccccc1)Nc1nc2ccccc2n1CCOc1ccc(Br)cc1
-1.3	i	-8.3%	5.4%	x	Nc1nc2ccccc2n1CCOc1ccc(Br)cc1
7.8	-117.0%*	0.1%	0.4%	-0.6%	COC(=O)c1sccc1NC(=O)c1cc(-c2ccc(C)cc2C)nc2ccccc12
x	i	8.6%	-0.5%	x	COC(=O)c1sccc1NC(=O)c1ccccc1C(=O)O
0.8	i	16.4µM*	u	1.6%	CCc1nn(-c2ccccc2)c2c1-c1cc(OC)c(OC)cc1C1(N2)C(=O)Nc2ccccc21 (configuration not stated)
0.5	i	-23.5%	u	-0.8%	COc1cc2c(cc1OC)C1(Nc3c-2c(C)nn3-c2ccccc2)C(=O)Nc2ccccc21 (configuration not stated)
-2.7	-93.6%*	13.0%	2.7%	-0.5%	CC(C)NC(=O)c1sc2nc(-c3cccs3)cc(-c3cccs3)c2c1N
32.7	i	u	u	-5.0%	COc1ccc(C(=O)c2sc3nc(C)cc(-c4cccs4)c3c2N)cc1
13.7	-90.9%*!	-5.7%	5.8%	10.5%	Cn1c(=NC(=O)C2CCN(S(=O)(=O)c3cccs3)CC2)sc2ccccc21
7.0	i	-6.3%	1.7%	-0.5%	CN(C(=O)C1CCN(S(=O)(=O)c2cccs2)CC1)c1ccccc1
16.8	-116.0%*	0.7%	0.1%	-3.2%	O=C(O)c1cc(N2C(=O)C3CC=CCC3C2=O)ccc1NCc1cccnc1 (configuration not stated)
-3.9	i	-6.9%	0.3%	4.3%	O=C(O)c1cc(N2C(=O)CCC2=O)ccc1NCc1cccnc1
-78.6*	i	-0.8%	-1.6%	4.0%	Cc1cccc(C)c1NC(=O)N1CCC(C(=O)c2ccc(F)cc2)CC1
30.9	i	9.2µM*[inhibitor]	u	2.0%	Fc1ccc(N2N=C(c3cccs3)CC2c2ccccc2)cc1 (configuration not stated)
3.3	i	9.5%	-2.3%	-5.5%	O=C(Nc1ccccc1OC(F)F)C1CCCN1C(=O)c1cccs1 (configuration not stated)
2.2	i	3.26µM*[inhibitor]	u	1.3%	CCC(C)NC(=O)c1c(N)n(/N=C/c2cccnc2)c2nc3ccccc3nc12 (configuration not stated)
-1.2	-107.5%*	5.4%	-1.7%	-20.3%	N#Cc1nc(Cc2cccc3ccccc23)oc1NCc1ccc(F)cc1
-1.2	i	-9.3%	1.0%	-2.2%	CN(CC(=O)Nc1ccc(F)cc1[N+](=O)[O-])C1CCS(=O)(=O)C1 (configuration not stated)

Compound profiles, as listed above. Screens in order: TSHR antag, pAkt inh, Rango dissoc inh, Rango complex inh, p53 reactivator
`O=C(O)c1cc(N2C(=O)C3CC=CCC3C2=O)ccc1NCc1cccnc1` (configuration not stated) in the list: 16.8, -116.0%*, 0.7%, 0.1%, -3.2%
`Cc1cccc(C)c1NC(=O)N1CCC(C(=O)c2ccc(F)cc2)CC1` in the list: -78.6*, i, -0.8%, -1.6%, 4.0%
`CN(CC(=O)Nc1ccc(F)cc1[N+](=O)[O-])C1CCS(=O)(=O)C1` (configuration not stated) in the list: -1.2, i, -9.3%, 1.0%, -2.2%

The main list resumes, starting 3 compounds before the break.
TSHR antag	pAkt inh	Rango dissoc inh	Rango complex inh	p53 reactivator	structure
2.2	i	3.26µM*[inhibitor]	u	1.3%	CCC(C)NC(=O)c1c(N)n(/N=C/c2cccnc2)c2nc3ccccc3nc12 (configuration not stated)
-1.2	-107.5%*	5.4%	-1.7%	-20.3%	N#Cc1nc(Cc2cccc3ccccc23)oc1NCc1ccc(F)cc1
-1.2	i	-9.3%	1.0%	-2.2%	CN(CC(=O)Nc1ccc(F)cc1[N+](=O)[O-])C1CCS(=O)(=O)C1 (configuration not stated)
-114.3*	i	2.6%	5.6%	-5.0%	CS(=O)(=O)c1ccc(N2CCN(c3ccccn3)CC2)c([N+](=O)[O-])c1
x	i	8.5%	65.1µM*	x	Cc1cc(Cc2cc(C)c(O)c(CO)c2)cc(CO)c1O
-41.7	-107.9%*	-9.4%	-1.7%	-1.1%	O=C(/C=C/c1ccco1)Nc1ccc(Oc2ccc(Cl)cc2)cc1
-2.7	i	-17.0%	-5.5%	5.8%	COc1cccc(NC(=O)/C=C/c2ccco2)c1
1.6	i	13µM*	u	-6.7%	CC(=O)Nc1nc2n(n1)C(c1ccc(Cl)cc1)C=C(C)N2 (configuration not stated)
7.0	i	-8.6%	u	-6.9%	CC1=CC(c2ccc(Cl)cc2)n2nc(NC(=O)c3ccccc3)nc2N1 (configuration not stated)
-2.2	i	9.3%	0.5%	31.6µM*	CC(C)(C)c1csc(NC(=O)CCc2ccccc2)n1
4.8	-105.7%*	-13.8%	u	0.1%	CCOC(=O)CC1=NS(=O)(=O)c2ccccc2N1
3.0	-81.4%*	0.1%	-0.8%	-0.3%	CC1Cc2ccccc2N1C(=O)CSc1nnc(CSc2ncccn2)n1C (configuration not stated)
